Here are results for 94 compounds from PubChem BioAssay AID435005 (Broad Institute, 2010).

Only a part is listed here, and it is no random draw. Active and inactive are the calls of the source.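 Rule for the calls: active = Every replicate reaches about 75%, or at least half do and their mean reaches it too (limit read from the data); inconclusive = At least half of replicates reach the limit but their mean does not; inactive = Under half of replicates reach the limit.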

A short description of this assay: INS-1E beta cell survival under cytokines – luminescence, primary screen (AID 435005).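 Note: 0% = cytokine-treated negative control wells and 100% = positive control rescue; higher means more ATP so stronger rescue from cytokine killing.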 Conditions: INS-1E cytokine-induced death, ATP luminescence, 48 h; active compounds read high; percent of positive-control rescue, neutral wells zero; concentration not given here.
Take `O=[N+]([O-])c1cc([N+](=O)[O-])c(O)c([N+](=O)[O-])c1.c1ccc(Oc2ccncc2)cc1`: the protection from apoptosis is inactive: -7.35%.
On to `CCOC(=O)c1ccc(NP(C)(=O)Oc2ccc(OC)cc2)cc1` (centres undefined), for which the protection from apoptosis is inactive: -3.31%.
For `CCOP(C)(=S)SCC(=O)NC(C)C(=O)O` (centres undefined), the protection from apoptosis is inactive: -2.02%.
Consider `O=C(OC1CN2CCC1CC2)c1cccc([N+](=O)[O-])c1` (centres undefined), for which the protection from apoptosis is inactive: -4.32%.
On to `CP(=O)(Nc1ccccn1)Oc1ccc(Cl)cc1` (centres undefined), for which the protection from apoptosis is inactive: -1.91%.
Then `CCC(C)N(CC(C)C)C(=S)SC(NC(C)=O)C(Cl)(Cl)Cl` (centres undefined), with inactive: 64.1%.
Take `COP1(=S)c2c(C)nn(CCC#N)c2N=C(c2ccc(F)cc2)N1C` (centres undefined): the protection from apoptosis was inactive: -0.266%.
`CP(=O)(Nc1ccc(SC(F)(F)F)cc1)Oc1ccc(Cl)cc1` (centres undefined): the protection from apoptosis is inactive: -7.47%.
`Cc1cccc(C)c1OP(C)(=O)Nc1ccc(SC(F)(F)F)cc1` (centres undefined): the protection from apoptosis is inactive: 33.5%.
In the case of `CP(=O)(Oc1ccccc1)OC(c1ccccc1)C(F)(F)F` (centres undefined), the protection from apoptosis was inactive: -0.923%.
Then `O=C(COc1ccccc1)OC1CN2CCC1CC2` (centres undefined), with inactive: 0.452%; and `CCc1ccc(OP(C)(=O)N2CCN(c3ccc([N+](=O)[O-])cc3)CC2)cc1` (centres undefined), with inactive: -13.2%.
With `Cc1cc(C)cc(OP(C)(=O)Nc2ccc(SC(F)(F)F)cc2)c1` (centres undefined), the protection from apoptosis is inactive: -6.53%.
In the case of `O=C(Nc1ccncc1[N+](=O)[O-])c1ccc([N+](=O)[O-])cc1[N+](=O)[O-]`, the protection from apoptosis was inactive: 6.52%.
Consider `CCOC(=O)Nc1cccc([As](=O)(O)O)c1`, for which the protection from apoptosis is inactive: 2.68%.
For `CP(=O)(Nc1ccccc1Br)Oc1ccccc1` (centres undefined), the protection from apoptosis was inactive: 0.146%.
As for `O=[N+]([O-])c1ccc(Nc2ccc(Oc3ccc([N+](=O)[O-])cc3[N+](=O)[O-])cc2)c([N+](=O)[O-])c1`, the protection from apoptosis is inactive: 14.1%.
Then `Cc1cc(SC(NC=O)C(Cl)(Cl)Cl)ncn1` (centres undefined), with inactive: -10.4%; and `O=P(Nc1ccccn1)(c1cccc2ccccc12)c1cccc2ccccc12`, with inactive: 13.3%.
Then `CCOC(=O)Nc1ccc([As](=O)(O)O)c(O)c1`, with inactive: -9.3%; and `Cc1cc(SC(NC(=O)c2ccccc2)C(Cl)(Cl)Cl)nc(C(C)C)n1` (centres undefined), with inactive: -8.96%; and `COc1ccccc1OP(C)(=O)Nc1ccc(C)cc1` (centres undefined), with inactive: -6.6%.
As for `Cc1ccc(NP(C)(=O)Oc2ccccc2)c(C)c1` (centres undefined), the protection from apoptosis is inactive: -0.775%.
As to `CC(C)c1ccc(OP(=O)(Nc2ccccn2)Oc2ccccc2F)cc1` (centres undefined), the protection from apoptosis is inactive: 1.68%.
Turning to `CCOC(=O)c1ccc(NP(C)(=O)Oc2ccccc2)cc1` (centres undefined), the protection from apoptosis was inactive: -3.33%.
The figure for `ClCCSc1nnc(-c2cccnc2)o1` is inactive: -3.65%; for `Cc1cc(C)cc(OP(C)(N)=O)c1` (centres undefined) it is inactive: 2.08%; for `CC(C)NC(=O)NP(=O)(Oc1ccccc1)Oc1ccccc1` it is inactive: 1.44%.
Take `COc1ccccc1OP(C)(=O)Nc1cc(Cl)ccc1C` (centres undefined): the protection from apoptosis is inactive: -3.03%.
In the case of `CCN(CC)C(=S)SC(NC=O)C(Cl)(Cl)Cl` (centres undefined), the protection from apoptosis was inactive: 16.6%.
Take `COc1ccc(OP(C)(=O)Nc2cccc(F)c2)cc1` (centres undefined): the protection from apoptosis was inactive: -1.25%.
On to `O=[As](O)(c1ccc(O)cc1)c1ccccc1O`, for which the protection from apoptosis is inactive: -8.68%.
Then `C[As](=O)(O)c1cccc(C(=O)O)c1`, with inactive: -6.3%.
For the compound `COc1cc(C(=O)NCC2(N3CCOCC3)CCCCC2)ccc1OCC(C)C`, the protection from apoptosis is inactive: 1.49%.
As to `O=[N+]([O-])c1cc([N+](=O)[O-])c(Nc2cccnc2)c([N+](=O)[O-])c1`, the protection from apoptosis was active: 125%.
Then `O=[N+]([O-])c1ccc2c(c1)C=Nc1ccccc1O2`, with inactive: 17.1%; and `Cc1ccc2nc3c(c(C)c2c1)CC(C(Cl)Cl)S3` (centres undefined), with inactive: -2.93%; and `Cc1ccc(OP(=O)(Nc2ccc([N+](=O)[O-])cn2)Oc2ccc(C)cc2)cc1`, with inactive: 6.06%.
Regarding `CC(C)(C)c1ccc(OP(C)(=O)Nc2ccc(SC(F)(F)F)cc2)cc1` (centres undefined), the protection from apoptosis is inactive: 2.73%.
On to `Cc1cccc(C)c1OP(C)(N)=O` (centres undefined), for which the protection from apoptosis was inactive: -2.64%.
`CC(Cc1ccc(O)cc1)NCC(O)c1cc(O)cc(O)c1` (centres undefined): the protection from apoptosis was inactive: -9.52%.
The figure for `COc1ccc(N/C(=N/P(=O)(N2CCOCC2)N2CCOCC2)N2CCOCC2)cc1` is inactive: -9.91%; for `O=C(OC1CN2CCC1CC2)C12CC3CC(CC(C3)C1)C2` (centres undefined) it is inactive: 4.37%; for `Cc1cc(=O)[nH]c(N[N+](=O)[O-])n1` it is inactive: -7.55%.
The figure for `CCN(CC)CCCOC(=O)C(O)(c1ccccc1)c1ccccc1` is inactive: -2.99%.
On to `Cc1c2c(nc3ccccc13)SC(C(Cl)Cl)C2` (centres undefined), for which the protection from apoptosis was inactive: -4.58%.
The figure for `COc1cc(I)ccc1[As](=O)(O)O` is inactive: -4.45%; for `Cc1ccc(C)c(NP(C)(=O)Oc2ccccc2)c1` (centres undefined) it is inactive: -10.5%; for `CCCOP(=S)(Nc1nc(N)cc(=O)[nH]1)OCCC` it is inactive: 0.373%.
Then `Cc1cc(C)cc(OP(C)(=O)Nc2ccccn2)c1` (centres undefined), with inactive: -26.1%; and `CP(=O)(Nc1cccc(Br)c1)Oc1ccccc1` (centres undefined), with inactive: -6.99%.
Regarding `Cc1ccc(NCCc2c([N+](=O)[O-])cc([N+](=O)[O-])cc2[N+](=O)[O-])cc1`, the protection from apoptosis is inactive: 32.3%.
On to `Nc1cccc2c([As](=O)(O)O)cccc12`, for which the protection from apoptosis was inactive: -5.73%.
In the case of `CCOP(=O)(Nc1cccc2ccccc12)OCC`, the protection from apoptosis was inactive: -3.22%.
Then `O=[As](O)(O)c1cccnc1`, with inactive: 0.364%.
Then `COc1cc(C(=O)NCC2(N3CCOCC3)CCCCC2)cc(Cl)c1OC(C)C`, with inactive: 4.22%; and `COc1ccccc1OP(C)(=O)Nc1cccc(Br)c1` (centres undefined), with inactive: -4.78%; and `CS(=O)(=O)c1ccc(Cl)c(NC(=O)COC(=O)C(O)(c2ccccc2)c2ccccc2)c1`, with inactive: 3.16%.
Then `O=C(OC1CN2CCC1CC2)c1ccc(Cl)cc1` (centres undefined), with inactive: -3.05%; and `CCOC(=O)c1ccc(NP(C)(=O)Oc2cc(C)cc(C)c2)cc1` (centres undefined), with inactive: -2.81%.
Take `Cc1cccc(OCC(=O)OC2CN3CCC2CC3)c1` (centres undefined): the protection from apoptosis is inactive: -0.652%.
Turning to `O=[As](O)(c1cccc(O)c1)c1cccc(O)c1`, the protection from apoptosis is inactive: -4.39%.
On to `Cc1cc(C)cc(OP(C)(=O)Nc2ccc(C)cc2C)c1` (centres undefined), for which the protection from apoptosis is inactive: -9.02%.
The figure for `NC(=O)Nc1ccc([As](=O)(O)O)cc1` is inactive: -3.99%; for `O=[N+]([O-])c1ccc2c(c1)nnn2O` it is inactive: -3.82%; for `CC1=NCCc2c1[nH]c1ccccc21.O=[N+]([O-])c1cc([N+](=O)[O-])c(O)c([N+](=O)[O-])c1` it is inactive: -0.356%.
For `CN(C(=O)Cc1ccc(Cl)c(Cl)c1)[C@H]1CC[C@@]2(CCCO2)C[C@@H]1N1CCCC1`, the protection from apoptosis is inactive: 1.55%.
As to `N#CCCN(C(=O)COC(=O)C(O)(c1ccccc1)c1ccccc1)c1ccc(F)cc1`, the protection from apoptosis is inactive: -1.84%.
The figure for `CN(C(=O)Cc1ccccc1)[C@@H]1CC[C@]2(CCCO2)C[C@H]1N1CCCC1` is inactive: -2.32%; for `CCOP1(=S)c2c(C)nn(CCC#N)c2N=C(c2ccc(F)cc2)N1C` (centres undefined) it is inactive: 16.4%; for `CS(=O)(=O)c1cc([N+](=O)[O-])c2no[n+]([O-])c2c1` it is inactive: 6.25%.
Then `O=C(O)c1cccc(Nc2c([N+](=O)[O-])cc([N+](=O)[O-])cc2[N+](=O)[O-])c1`, with inactive: 2.1%.
On to `CCOP1(=S)c2c(C)nn(CCC#N)c2N=C(c2ccccc2F)N1C` (centres undefined), for which the protection from apoptosis is inactive: 0.177%.
For the compound `O=P(Nc1nccs1)(Oc1ccccc1)Oc1ccccc1`, the protection from apoptosis was inactive: -12.7%.
As to `O=P(Nc1nccs1)(c1ccccc1)c1nc2ccccc2s1` (centres undefined), the protection from apoptosis is inactive: 14.1%.
Then `O=C(O)COc1ccc([As](=O)(O)O)cc1[N+](=O)[O-]`, with inactive: -3.26%.
Take `Nc1ccccc1[As](=O)(O)c1ccccc1`: the protection from apoptosis was inactive: -3.15%.
Then `CN1CCCCC1COC(=O)C1(O)c2ccccc2CCc2ccccc21` (centres undefined), with inactive: -0.563%; and `COc1ccccc1OP(C)(=O)Nc1c(C)cccc1C` (centres undefined), with inactive: -7.17%.
For the compound `O=P1(Nc2ncccn2)COc2ccccc2OC1`, the protection from apoptosis was inactive: -1.15%.
As to `Cc1ccc(OCC(=O)OC2CN3CCC2CC3)cc1` (centres undefined), the protection from apoptosis was inactive: 1.28%.
With `O=[As](O)(c1cccs1)c1cccs1`, the protection from apoptosis was inactive: -5.25%.
As for `NS(=O)(=O)c1cccc(NC(=O)COC(=O)C(O)(c2ccccc2)c2ccccc2)c1`, the protection from apoptosis is inactive: -0.94%.
Turning to `O=P1(Nc2ccc(Br)cn2)COc2ccccc2OC1`, the protection from apoptosis was inactive: -2.7%.
Consider `CCCOc1ccc(NP(C)(=O)Oc2ccc(Cl)cc2)cc1` (centres undefined), for which the protection from apoptosis is inactive: -2.96%.
For the compound `Nc1cccc([As](=O)(O)c2ccccc2)c1`, the protection from apoptosis is inactive: -4.55%.
For `CP(=O)(Nc1ccc(SC(F)(F)F)cc1)Oc1ccccc1` (centres undefined), the protection from apoptosis is inactive: 3.56%.
Consider `COc1cc(C2NCCC3(OCCO3)C2(C)C)cc(OC)c1OC.O=[N+]([O-])c1cc([N+](=O)[O-])c(O)c([N+](=O)[O-])c1` (centres undefined), for which the protection from apoptosis is inactive: 0.572%.
As to `Cc1nn(-c2ccccc2)c2c1P(=O)(N1CCOCC1)N(C)C(c1ccccc1)=N2` (centres undefined), the protection from apoptosis is inactive: 0.0848%.
As to `Cc1ccc(C(=O)OC2CN3CCC2CC3)cc1` (centres undefined), the protection from apoptosis is inactive: -8.32%.
Turning to `CC1CCC(C(C)C)C(OP(=O)(Nc2ccccn2)c2ccccc2)C1` (centres undefined), the protection from apoptosis is inactive: 12.7%.
The figure for `O=C(/C=C/c1ccccc1)OC1CN2CCC1CC2` (centres undefined) is inactive: -4.75%; for `CC1=C2N=C(C=C3N=C(C(C)=C4[N-][C@@](C)([C@@H]5N=C1[C@](C)(CCC(=O)NC[C@@H](C)OP(=O)([O-])O[C@H]1[C@@H](O)[C@@H](n6cnc7cc(C)c(C)cc76)O[C@@H]1CO)[C@H]5CC(N)=O)[C@@](C)(CC(N)=O)[C@@H]4CCC(N)=O)[C@@](C)(CC(N)=O)[C@@H]3CCC(N)=O)C(C)(C)[C@@H]2CCC(N)=O.[C-]#N.[Co+3]` it is inactive: 4.91%.
As for `CN(C)C1(CNC(=O)c2ccc(S(C)(=O)=O)cc2)CCCCC1`, the protection from apoptosis was inactive: 5.95%.
